Laboratory results from PubChem BioAssay AID720553 (National Center for Advancing Translational Sciences (NCATS), 2013).
This is a selection; strong and weak results do not stand in their true shares. Activity calls are given as the source filed them.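 Rule for the calls: active = maximum activity change below -70%; inconclusive = maximum activity change from -70% to -50%; inactive = maximum activity change above -50%.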

These compounds were tested on Potassium voltage-gated channel subfamily H member 2, brain isoform KCNH2 3.1 (human) (assay: qHTS for Inhibitors of KCHN2 3.1: Mutant qHTS). Conditions: U2OS KCNH2 3.1, thallium flux FluxOr; active compounds read low.
Excerpt: Many antipsychotic drugs that inhibit the neurotransmitter dopamine also bind to hERG1 channel which might help explain their antipsychotic activity but also produces cardiac side effects. The discovery of the novel KCNH2 3.1 isoform offers a potential new target for the development of antipsychotic drugs without cardiac side effects. This proposal will use a high throughput thallium flux assay developed for KCNH2 to screen compounds that modulate the activity of KCNH2 3.1. The wild type KCNH2 channel will also be screened in parallel to help define the selective modulators of this KCNH2 3.1 potassium channel. The resulting compounds will be validated in electrophysiology experiments. The availability of animal models will allow future testing in vivo for effects on memory and other aspects of animal physiology linked with psychosis. NIH Chemical Genomics Center [NCGC] NIH Molecular Libraries Probe Centers Network [MLPCN] MLPCN Grant: MH096539 Assay Submitter (PI): James Barrow, Johns Hopkins University, Lieber Institute for Brain Development
U2OS cells were resuspended in cell media containing 10% fetal calf serum (FCS) at a concentration of 2 million cells / mL. The solution was treated with the mutant (3.1) virus at 1.77 x 10^8 / mL and allowed to incubate at room temperature in the dark. After 4 hours of incubation, DMEM + 10% fetal bovine serum (FBS) was added to the cell solution. Three microliter was then dispensed into a 1536 tissue culture treated black assay plates which were incubated overnight at 37 C. Two microliter of loading buffer (HBSS + HEPES + Red40 dye quencher + FluxOr dye) was added and the assay plates were incubated for 45 min at room temperature in the dark. […] A stimulation buffer was added to the plate and the second kinetic read (2 min) was obtained. The rate constant was calculated from the kinetic reads and normalized to the positive and negative DMSO controls.
% is set by controls: 0 for no effect and ±100 for the full control effect.

| Compound | activity change |
| --- | --- |
| CCCCOc1ccc(C(=O)NCC2(N3CCCCC3)CCCCC2)cc1OC | inactive: -7.48% |
| Cc1cc(SC(NC(=O)c2ccccc2)C(Cl)(Cl)Cl)nc(C(C)C)n1 (centres undefined) | inactive: 26.8% |
| O=C(O)C(O)c1ccc(N(CCCl)CCCl)cc1 (centres undefined) | inactive: -35.3% |
| CCOC(=O)Nc1ccc([As](=O)(O)O)c(O)c1 | inactive: 38.1% |
| CC1CCNP(=O)(N(CCCl)CCCl)O1 (centres undefined) | inactive: -8.87% |
| Cc1cc(SC(NC=O)C(Cl)(Cl)Cl)ncn1 (centres undefined) | inactive: 9.43% |
| O=P(Nc1ccccn1)(c1cccc2ccccc12)c1cccc2ccccc12 | inactive: 2.21% |
| O=[N+]([O-])c1ccc(Nc2ccc(Oc3ccc([N+](=O)[O-])cc3[N+](=O)[O-])cc2)c([N+](=O)[O-])c1 | active: -74.8% |
| CCOC(=O)Nc1cccc([As](=O)(O)O)c1 | inactive: -10.5% |
| O=C(O)C(=O)c1ccc(N(CCCl)CCCl)cc1 | active: -149% |
| O=C(COc1ccccc1)OC1CN2CCC1CC2 (centres undefined) | inactive: -13.6% |
| O=C(Nc1ccncc1[N+](=O)[O-])c1ccc([N+](=O)[O-])cc1[N+](=O)[O-] | inactive: 9.52% |
| COP1(=S)c2c(C)nn(CCC#N)c2N=C(c2ccc(F)cc2)N1C (centres undefined) | inactive: 5.84% |
| CCC(C)N(CC(C)C)C(=S)SC(NC(C)=O)C(Cl)(Cl)Cl (centres undefined) | inactive: -4.94% |
| O=C(OC1CN2CCC1CC2)c1cccc([N+](=O)[O-])c1 (centres undefined) | inactive: 4.58% |
| CSc1ccc(Nc2c([N+](=O)[O-])cc([N+](=O)[O-])cc2[N+](=O)[O-])cc1 | inactive: 0.0171% |
| CCOC(=O)c1ccc(NC(=O)C(C)(CCl)SC)cc1 (centres undefined) | inactive: 5.15% |
| Cc1ccc(NP(=O)(Oc2ccccc2)Oc2ccccc2)nc1 | inactive: -1.46% |
| O=[N+]([O-])c1cc([N+](=O)[O-])c(CCNc2ccccc2)c([N+](=O)[O-])c1 | inactive: 4.25% |
| CCc1nc2c(n1)c1c(non1O)c1c2no[n+]1[O-] | inactive: 5.21% |
| CC(=O)N1C2C3N(C(C)=O)C1C1N(C(C)=O)C(C(N1C(C)=O)N3C(C)=O)N2C(C)=O | inactive: -9.98% |
| O=[N+]([O-])c1cccc2n[nH]nc12 | inactive: 5.44% |
| COc1ccc(C2=NCC(CBr)S2)cc1 (centres undefined) | inactive: -6.28% |
| CC1CCN(C(=O)Oc2c(Cl)cc(Cl)c3cccnc23)CC1 | inactive: -19% |
| c1cc(-c2nn[nH]n2)ccc1-c1nn[nH]n1 | inactive: 3.26% |

| Compound | activity change |
| --- | --- |
| CC(C)c1nc(Nc2ccccc2)n(P(=O)(N(C)C)N(C)C)n1 | inactive: -4.68% |
| CC(C)=N/N=C(\N)N[N+](=O)[O-] | inactive: 23.2% |
| CN(C)C(=O)OCCc1n(C)cc[n+]1C | inactive: 6.62% |
| Nc1ccc([As](=O)(O)c2ccc(N)cc2)cc1 | inactive: 8.86% |
| C[N+]1=C2C=CC=CC=C2SC12C([N+](=O)[O-])=CC([N+](=O)[O-])=C[C-]2[N+](=O)[O-] (centres undefined) | inactive: -0.49% |
| O=C(Nc1cc([As](=O)(O)O)ccc1O)c1ccccc1 | inactive: 3.1% |
| O=P1(N(CCCl)CCCl)OCCCS1 (centres undefined) | inactive: -1.06% |
| O=C(O)CNc1ccc([As](=O)(O)O)cc1 | inactive: -2.87% |
| COC(=O)C1(C)COP(=O)(Nc2ccccc2)OC1 (centres undefined) | inactive: -9.21% |
| O=[N+]([O-])c1cccc(NC2=NCC(CBr)S2)c1 (centres undefined) | inactive: 17.3% |
| O=[N+]([O-])c1ncn(CCn2ncnc2[N+](=O)[O-])n1 | inactive: -4.17% |
| CC(C)(C)C(=O)NC(Sc1ccncn1)C(Cl)(Cl)Cl (centres undefined) | inactive: 1.56% |
| Cc1cc(SC(NC(=O)c2ccc(F)cc2)C(Cl)(Cl)Cl)ncn1 (centres undefined) | inactive: 18.6% |
| CCOP(=O)(Nc1ccccc1)OCC | inactive: -2.61% |
| CN(C(=O)Cc1ccc(Cl)c(Cl)c1)[C@H]1CCCC[C@@H]1N1CCCC1 | inactive: -28.1% |
| Cc1ccc(NP(=O)(Oc2ccccc2F)Oc2ccccc2F)nc1 | inactive: 3.24% |
| O=P(Nc1nc2ccc(Cl)cc2s1)(c1ccccc1)c1ccccc1 | inactive: -4.96% |
| CN(C)P(=O)(N(C)C)n1c(Nc2ccccc2)nnc1-c1ccccc1 | inactive: -1.9% |
| CC(=O)Nc1ccc([As](=O)(O)O)cc1 | inactive: 15.6% |
| O=C(O)c1ccccc1[As](=O)(O)O | inactive: 1.2% |
| CCCC1OP(N)(=O)OCC1CC (centres undefined) | inactive: 9.45% |
| Nc1cccc2ccc([As](=O)(O)O)cc12 | inactive: -4.38% |
| CCN(N=Nc1nonc1N)c1nonc1N | inactive: 19.1% |
| CN1CCCC(OC(=O)C(c2ccccc2)c2ccccc2)C1 (centres undefined) | inactive: -43.1% |
| Clc1ccc(Cl)c(NC2=NCC(CBr)S2)c1 (centres undefined) | inactive: 0.575% |

| Compound | activity change |
| --- | --- |
| COc1ccccc1OP(=O)(Nc1ccc(C)cn1)Oc1ccccc1OC | inactive: -3.39% |
| Cc1ccc(OP(=O)(Nc2nccs2)Oc2ccc(C)cc2)cc1 | inactive: -9.03% |
| CN(C(=O)Cc1ccc(Cl)c(Cl)c1)[C@H]1CCCC[C@H]1N1CCCC1 | inactive: -4.81% |
| Cc1ccc(N/C(=N/P(=O)(N2CCOCC2)N2CCOCC2)N2CCOCC2)cc1 | inactive: -3.72% |
| NC(=O)c1cc([N+](=O)[O-])cc([N+](=O)[O-])c1N | inactive: 13.4% |
| Oc1ccccc1CNc1ccccn1 | inactive: 4.98% |
| O=C(NC(Sc1ccncn1)C(Cl)(Cl)Cl)c1ccccc1 (centres undefined) | inactive: 17.5% |
| Nc1cc(N)c2nonc2c1[N+](=O)[O-] | inactive: -0.686% |
| CC(C)CC(=O)NC(Sc1ccc(Cl)cc1)C(Cl)(Cl)Cl (centres undefined) | inactive: 0.952% |
| CC(C)(C)C(=O)NC(Sc1ccccc1)C(Cl)(Cl)Cl (centres undefined) | inactive: -13.8% |
| CCc1cc(O)c([N+](=O)[O-])c(C)c1[N+](=O)[O-] | inactive: -5.44% |
| O=P1(Nc2nc3ccc(Cl)cc3s2)COc2ccccc2O1 (centres undefined) | inactive: -33.7% |
| CCOc1ccc(C2=NCC(CBr)S2)cc1 (centres undefined) | inactive: -1.45% |
| CC(=O)Nc1ccc([As](=O)(O)O)c(O)c1 | inactive: 5.15% |
| CC(=O)Nc1ccc(Oc2c([N+](=O)[O-])cc([N+](=O)[O-])cc2[N+](=O)[O-])cc1 | inactive: 3.26% |
| Cc1ccccc1CN(C)C(=O)COC(=O)C(O)(c1ccccc1)c1ccccc1 | inactive: -4.81% |
| C[C@H]1OP(=O)(Oc2ccccc2)C[C@@H]2O[C@@H]21 (some centres undefined) | inactive: 2.01% |
| C[C@@H]1C=CCP(=O)(Oc2ccccc2)O1 (some centres undefined) | inactive: 8.08% |
| CC(=O)c1ccc(N2CC2c2ccncc2)cc1 (centres undefined) | inactive: -0.283% |
| COC(=O)C1(C)COP(=O)(NCc2ccccc2)OC1 (centres undefined) | inactive: -9.69% |
| O=P1(N(CCCl)CCCl)OCCC2CCCCN21 (centres undefined) | inactive: -5.01% |
| c1ccc(-c2nn[nH]n2)c(-c2nn[nH]n2)c1 | inactive: -36.2% |
| Cc1ccc(NP(=O)(Oc2cccc(C)c2)Oc2cccc(C)c2)nc1 | inactive: -17.1% |
| O=C(NC1CCS(=O)(=O)C1)NP(=S)(Oc1ccccc1)Oc1ccccc1 (centres undefined) | inactive: 7.71% |
| CCNC(=S)/N=C(\N)N[N+](=O)[O-] | inactive: 6.23% |

| Compound | activity change |
| --- | --- |
| CC(NC(=O)COC(=O)C(O)(c1ccccc1)c1ccccc1)c1ccccc1 (centres undefined) | inactive: -12.2% |
| Cc1ccccc1OP(=O)(Nc1ccccn1)Oc1ccccc1C | inactive: -8.59% |
| O=c1c2cc([N+](=O)[O-])ccc2[nH]c2c([N+](=O)[O-])cc([N+](=O)[O-])cc12 | inactive: -4.69% |
| CN(C)C(=O)Oc1noc2ccccc12 | inactive: 0.989% |
| O=C(OC1CN2CCC1CC2)c1ccccc1 (centres undefined) | inactive: -5.09% |
| CCC(=O)N1C2C3N(C(=O)CC)C1C1N(C(=O)CC)C(C(N1C(=O)CC)N3C(=O)CC)N2C(=O)CC | inactive: -20.8% |
| COC(=O)c1cc2c(s1)N=C(c1ccccc1)N(C)P2(=O)N1CCOCC1 (centres undefined) | inactive: 0.841% |
| Cc1ccc(OP(=O)(Nc2ccccn2)Oc2ccc(C)cc2)cc1 | inactive: 6.82% |
| CC(=O)NC(SC(=S)N(CC(C)C)CC(C)C)C(Cl)(Cl)Cl (centres undefined) | inactive: 8.56% |
| O=P(Nc1nc2ccccc2s1)(c1ccccc1)c1ccccc1 | inactive: -5.1% |
| C[C@H]1OP(=O)(Oc2ccccc2)[C@H](O)[C@H](O)[C@H]1N=[N+]=[N-] (some centres undefined) | inactive: 2.86% |
| CN(C)C1(CNC(=O)c2ccc(Cl)c(S(N)(=O)=O)c2)CCCCC1 | inactive: -1.29% |
| O=P(Nc1ccccn1)(c1ccc(Br)cc1)c1ccc(Br)cc1 | inactive: -5.4% |
| COc1ccc(N)c([N+](=O)[O-])c1[N+](=O)[O-] | inactive: 3.8% |
| O=C(OC1CN2CCC1CC2)c1cccc(Cl)c1 (centres undefined) | inactive: -3.91% |
| C(Cc1nn[nH]n1)Cc1nn[nH]n1 | inactive: 2.86% |
| Nc1ccc([As](=O)(O)c2ccc([N+](=O)[O-])cc2)cc1 | inactive: 8.48% |
| O=[As](O)(c1ccccc1)c1ccc(O)cc1 | inactive: -6.4% |
| O=[N+]([O-])c1ncn(CCn2cnc([N+](=O)[O-])n2)n1 | inactive: -10.6% |
| CC(=O)NC(SC(=S)N(C)C)C(Cl)(Cl)Cl (centres undefined) | inactive: -6.4% |
| O=[N+]([O-])c1ccc(O)c(/C=N/Nc2ccc([N+](=O)[O-])cc2[N+](=O)[O-])c1 | inactive: 8.62% |
| c1nnnn1CCn1cnnn1 | inactive: 21.7% |
| O=P(Nc1nccs1)(c1ccccc1)c1ccccc1 | inactive: -19.4% |
| CC(C)C(=O)NC(Sc1ccccc1)C(Cl)(Cl)Cl (centres undefined) | inactive: 1.43% |
